Test results taken from paper PMC9240326, “BacPROTACs mediate targeted protein degradation in bacteria” (Cell, 2022).

The chains behind the UniProt entries cited, without tags or fusion partners. Residues count along the entry.
UniProt A0R574, whole entry, looked up: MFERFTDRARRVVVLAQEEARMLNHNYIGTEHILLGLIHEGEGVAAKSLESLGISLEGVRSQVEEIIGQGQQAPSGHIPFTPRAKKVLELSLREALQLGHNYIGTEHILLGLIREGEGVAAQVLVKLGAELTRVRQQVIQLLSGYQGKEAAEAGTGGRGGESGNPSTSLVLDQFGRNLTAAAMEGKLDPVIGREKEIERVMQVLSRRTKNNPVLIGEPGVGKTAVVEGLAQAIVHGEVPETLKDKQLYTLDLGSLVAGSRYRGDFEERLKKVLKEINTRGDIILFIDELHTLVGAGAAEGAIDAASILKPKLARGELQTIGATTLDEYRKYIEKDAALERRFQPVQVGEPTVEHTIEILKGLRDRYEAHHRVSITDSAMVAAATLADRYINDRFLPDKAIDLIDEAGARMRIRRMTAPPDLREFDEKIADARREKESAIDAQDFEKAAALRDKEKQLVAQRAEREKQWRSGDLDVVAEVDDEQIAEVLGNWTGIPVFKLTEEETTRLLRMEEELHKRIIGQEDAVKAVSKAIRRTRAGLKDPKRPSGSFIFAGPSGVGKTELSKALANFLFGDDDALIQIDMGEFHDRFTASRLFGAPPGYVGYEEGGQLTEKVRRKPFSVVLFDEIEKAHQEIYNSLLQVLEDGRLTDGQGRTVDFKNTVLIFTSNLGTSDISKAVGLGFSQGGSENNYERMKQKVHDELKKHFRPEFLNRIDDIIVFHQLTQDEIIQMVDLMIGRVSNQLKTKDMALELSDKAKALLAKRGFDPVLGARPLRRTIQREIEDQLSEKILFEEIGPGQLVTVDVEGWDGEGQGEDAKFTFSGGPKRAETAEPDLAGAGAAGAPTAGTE
UniProt A0R574, 1-148 limits assumed: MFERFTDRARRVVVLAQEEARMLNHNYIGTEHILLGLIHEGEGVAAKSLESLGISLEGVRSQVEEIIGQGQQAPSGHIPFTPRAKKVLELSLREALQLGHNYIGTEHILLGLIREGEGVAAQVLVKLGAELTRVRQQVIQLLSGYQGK
UniProt P37571, whole entry E280A/E618A: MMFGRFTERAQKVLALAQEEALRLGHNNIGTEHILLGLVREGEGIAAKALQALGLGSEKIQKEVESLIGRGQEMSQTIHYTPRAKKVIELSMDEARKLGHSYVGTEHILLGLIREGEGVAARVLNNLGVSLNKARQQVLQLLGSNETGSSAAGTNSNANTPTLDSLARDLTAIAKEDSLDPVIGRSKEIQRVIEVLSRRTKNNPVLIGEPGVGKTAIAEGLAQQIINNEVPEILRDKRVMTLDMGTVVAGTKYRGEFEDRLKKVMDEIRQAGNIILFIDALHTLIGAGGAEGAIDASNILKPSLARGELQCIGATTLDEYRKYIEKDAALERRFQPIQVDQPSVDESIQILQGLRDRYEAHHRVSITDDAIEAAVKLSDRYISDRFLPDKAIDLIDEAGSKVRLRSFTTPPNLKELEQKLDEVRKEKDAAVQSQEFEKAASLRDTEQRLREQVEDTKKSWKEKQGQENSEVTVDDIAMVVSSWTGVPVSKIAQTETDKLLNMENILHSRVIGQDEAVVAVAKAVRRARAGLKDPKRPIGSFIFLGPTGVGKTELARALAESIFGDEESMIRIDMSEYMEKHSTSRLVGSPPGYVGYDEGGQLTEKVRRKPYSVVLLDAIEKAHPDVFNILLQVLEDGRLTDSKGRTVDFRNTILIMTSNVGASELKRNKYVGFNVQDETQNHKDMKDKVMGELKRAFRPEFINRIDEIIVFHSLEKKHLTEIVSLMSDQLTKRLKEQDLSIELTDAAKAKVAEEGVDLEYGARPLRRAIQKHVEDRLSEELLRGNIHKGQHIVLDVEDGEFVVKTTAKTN

Experiments:
[1] = molecular target: M. smegmatis ClpC1P1P2 (Mycolicibacterium smegmatis, UniProt A0R574); test: In vitro degradation assay, M. smegmatis ClpC1P1P2; assay type: biochemical, Mycobacterium smegmatis; conditions: 2-h incubation, SDS-PAGE
[2] = molecular target: ClpC1NTD (Mycolicibacterium smegmatis, UniProt A0R574); test: ITC titration with M. smegmatis ClpC1NTD; assay type: binding, Mycobacterium smegmatis; conditions: read-out: KD ClpC1NTD, 25 °C, average ± SD of independent measurements
[3] = tested on: mSA:ClpC1NTD; test: Analytical SEC, ternary complex mSA:ClpC1NTD; assay type: binding, Mycobacterium smegmatis; conditions: 25 μM proteins, 25 μM compound
[4] = molecular target: ClpCDWB (Bacillus subtilis, UniProt P37571, E280A/E618A); test: SEC and EM analysis of ClpC oligomeric state; conditions: ClpCDWB 25 μM, mSA-Kre 25 μM, 156 μM BacPROTAC-1
[5] = tested on: mSA:ClpCNTD; test: Analytical SEC, ternary complex mSA:ClpCNTD; conditions: 25 μM proteins, 25 μM compound
[6] = molecular target: B. subtilis ClpCP protease (Bacillus subtilis, UniProt P37571); test: In vitro degradation assay, B. subtilis ClpCP; assay type: biochemical; conditions: 2-h incubation, SDS-PAGE; for mSA-Kre degradation by ClpCP, BacPROTAC-1 analogs: DMSO control

| Structure (SMILES) | mSA-Kre degradation by ClpC1P1P2 [1] | Kd [2] | Ternary complex formation mSA:ClpC1NTD (SEC) [3] | ClpC oligomeric state induced [4] | Ternary complex formation mSA:ClpCNTD (SEC) [5] | mSA-Kre degradation by ClpCP ([6]; 1 μM compound) | mSA degradation by ClpCP ([6]; 100 μM compound) | mSA-Kre degradation by ClpCP, BacPROTAC-1 analogs [6] |
| --- | --- | --- | --- | --- | --- | --- | --- | --- |
| CC(=O)NC(CCCNC(=N)NP(=O)(O)O)C(=O)NCCOCCOCCC(=O)NCCOCCOCCC(=O)NCCOCCOCCC(=O)NC(CCCCNC(=O)CCCCC1SCC2NC(=O)NC21)C(N)=O (stereo not drawn) | induces the degradation of a mSA substrate in a highly selective and efficient manner | 690 nM | promotes ternary complex formation | tetramer of ClpC hexamers | formation of a stable ternary complex | degraded | selective mSA depletion |  |
| CC(=O)NC(CCCNC(=N)NP(=O)(O)O)C(=O)NCCOCCOCCC(=O)NC(CCCCNC(=O)CCCCC1SCC2NC(=O)NC21)C(N)=O (stereo not drawn) |  |  |  |  |  |  |  | degradation efficiency was not significantly influenced |
| CC(=O)NC(CCCNC(=N)NP(=O)(O)O)C(=O)NCCOCCOCCC(=O)NCCOCCOCCC(=O)NC(CCCCNC(=O)CCCCC1SCC2NC(=O)NC21)C(N)=O (stereo not drawn) |  |  |  |  |  |  |  | degradation efficiency was not significantly influenced |
